Laboratory results taken from ChEMBL document CHEMBL5500396, “Discovery, Multiparametric Optimization, and Solid-State Driven Identification of CHF-6550, a Novel Soft Dual Pharmacology Muscarinic Antagonist and β2 Agonist (MABA) for the Inhaled Treatment of Respiratory Diseases” (J Med Chem, 2024).

Tests used:
Conditions in all cases: albino Dunkin-Hartley, dose 0.3 nmol/kg, route it(Intratracheal), time 16.0 hrs
Cavia porcellus [1] = species on record: Cavia porcellus
Cavia porcellus [2] = species on record: Cavia porcellus; remark: listed apart in the source
Cavia porcellus [3] = species on record: Cavia porcellus; remark: listed apart in the source

Measured: inhibition

CCN1CCC(COC(=O)[C@](O)(c2ccccc2)c2cccc(OCCCNC(=O)c3cc(OC)c(CNC[C@H](O)c4ccc(O)c5[nH]c(=O)ccc45)cc3F)c2)CC1.O=C(O)C(F)(F)F.O=C(O)C(F)(F)F
active: Cavia porcellus [1] | Cavia porcellus [2] | Cavia porcellus [3]

Activity calls are given as the source filed them.
